Assay results reported in ChEMBL document CHEMBL1629528, “Discovery of 1-(3-{2-[4-(2-methyl-5-quinolinyl)-1-piperazinyl]ethyl}phenyl)-2-imidazolidinone (GSK163090), a Potent, selective, and orally active 5-HT1A/B/D receptor antagonist” (J Med Chem, 2010).

Sequences of proteins named here, by UniProt entry; tags and fusion partners are left off. A change or cut given only in a name is not applied to a line headed by its entry.
UniProt P34969, whole entry: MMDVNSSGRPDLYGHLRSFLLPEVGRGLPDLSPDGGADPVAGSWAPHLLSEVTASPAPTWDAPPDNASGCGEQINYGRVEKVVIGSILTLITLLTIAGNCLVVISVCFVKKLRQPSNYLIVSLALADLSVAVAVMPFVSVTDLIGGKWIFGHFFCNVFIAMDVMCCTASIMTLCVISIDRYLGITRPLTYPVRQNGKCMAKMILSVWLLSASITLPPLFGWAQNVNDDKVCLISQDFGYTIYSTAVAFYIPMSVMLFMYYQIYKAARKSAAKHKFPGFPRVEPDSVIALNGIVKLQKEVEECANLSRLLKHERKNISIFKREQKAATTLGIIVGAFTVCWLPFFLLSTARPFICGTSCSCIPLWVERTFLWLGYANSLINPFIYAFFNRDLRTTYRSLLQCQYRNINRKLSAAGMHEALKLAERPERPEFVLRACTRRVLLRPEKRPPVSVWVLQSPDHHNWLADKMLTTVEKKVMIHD
UniProt P35462, whole entry: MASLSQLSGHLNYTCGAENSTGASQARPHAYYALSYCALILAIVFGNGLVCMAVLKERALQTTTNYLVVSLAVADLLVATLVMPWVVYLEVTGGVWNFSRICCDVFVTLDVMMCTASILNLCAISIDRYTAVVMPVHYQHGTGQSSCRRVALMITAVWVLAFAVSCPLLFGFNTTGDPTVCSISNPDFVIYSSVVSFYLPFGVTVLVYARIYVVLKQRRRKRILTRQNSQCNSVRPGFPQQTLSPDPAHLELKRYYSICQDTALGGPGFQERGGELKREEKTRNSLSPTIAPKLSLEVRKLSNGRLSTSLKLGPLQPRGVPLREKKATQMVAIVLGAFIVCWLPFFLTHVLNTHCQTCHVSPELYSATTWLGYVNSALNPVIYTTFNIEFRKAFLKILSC
UniProt P08908, whole entry: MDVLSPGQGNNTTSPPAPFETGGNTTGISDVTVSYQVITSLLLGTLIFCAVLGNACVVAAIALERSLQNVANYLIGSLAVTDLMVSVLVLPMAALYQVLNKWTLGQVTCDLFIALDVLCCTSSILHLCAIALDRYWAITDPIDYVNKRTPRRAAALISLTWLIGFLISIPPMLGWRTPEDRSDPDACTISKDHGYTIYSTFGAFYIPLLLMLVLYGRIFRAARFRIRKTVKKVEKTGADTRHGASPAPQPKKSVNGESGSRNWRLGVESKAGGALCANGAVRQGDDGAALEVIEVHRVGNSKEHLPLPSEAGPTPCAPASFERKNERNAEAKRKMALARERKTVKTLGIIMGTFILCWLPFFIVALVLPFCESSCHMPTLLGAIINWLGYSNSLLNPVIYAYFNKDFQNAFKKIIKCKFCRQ
UniProt P31652, whole entry: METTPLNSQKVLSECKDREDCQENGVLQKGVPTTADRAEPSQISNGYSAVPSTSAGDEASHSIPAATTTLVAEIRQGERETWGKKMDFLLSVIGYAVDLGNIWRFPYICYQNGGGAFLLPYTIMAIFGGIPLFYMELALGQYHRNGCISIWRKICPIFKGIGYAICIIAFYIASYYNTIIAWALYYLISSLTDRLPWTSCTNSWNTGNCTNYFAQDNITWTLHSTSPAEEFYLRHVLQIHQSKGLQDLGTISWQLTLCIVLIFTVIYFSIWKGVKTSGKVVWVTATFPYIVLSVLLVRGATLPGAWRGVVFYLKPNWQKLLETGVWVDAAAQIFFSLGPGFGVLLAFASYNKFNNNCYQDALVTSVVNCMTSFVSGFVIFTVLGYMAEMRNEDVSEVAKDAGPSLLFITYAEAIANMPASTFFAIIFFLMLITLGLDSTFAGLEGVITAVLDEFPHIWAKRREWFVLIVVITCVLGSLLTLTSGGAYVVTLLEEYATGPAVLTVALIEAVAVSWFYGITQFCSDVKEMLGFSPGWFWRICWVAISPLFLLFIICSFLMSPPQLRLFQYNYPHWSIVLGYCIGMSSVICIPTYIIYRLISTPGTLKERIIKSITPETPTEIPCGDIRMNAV
UniProt P41595, whole entry: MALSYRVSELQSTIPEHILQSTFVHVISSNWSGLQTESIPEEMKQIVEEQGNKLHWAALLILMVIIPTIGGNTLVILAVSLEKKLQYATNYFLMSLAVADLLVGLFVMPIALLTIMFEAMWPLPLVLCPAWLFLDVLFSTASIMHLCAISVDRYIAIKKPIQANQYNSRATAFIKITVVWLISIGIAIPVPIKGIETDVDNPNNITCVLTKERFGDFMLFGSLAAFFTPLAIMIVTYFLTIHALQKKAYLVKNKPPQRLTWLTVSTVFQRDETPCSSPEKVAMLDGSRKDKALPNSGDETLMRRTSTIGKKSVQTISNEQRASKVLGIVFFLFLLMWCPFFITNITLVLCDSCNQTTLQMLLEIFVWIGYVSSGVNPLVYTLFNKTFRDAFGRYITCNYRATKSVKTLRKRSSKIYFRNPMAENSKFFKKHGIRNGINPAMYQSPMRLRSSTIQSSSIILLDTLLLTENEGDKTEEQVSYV
UniProt P28223, whole entry: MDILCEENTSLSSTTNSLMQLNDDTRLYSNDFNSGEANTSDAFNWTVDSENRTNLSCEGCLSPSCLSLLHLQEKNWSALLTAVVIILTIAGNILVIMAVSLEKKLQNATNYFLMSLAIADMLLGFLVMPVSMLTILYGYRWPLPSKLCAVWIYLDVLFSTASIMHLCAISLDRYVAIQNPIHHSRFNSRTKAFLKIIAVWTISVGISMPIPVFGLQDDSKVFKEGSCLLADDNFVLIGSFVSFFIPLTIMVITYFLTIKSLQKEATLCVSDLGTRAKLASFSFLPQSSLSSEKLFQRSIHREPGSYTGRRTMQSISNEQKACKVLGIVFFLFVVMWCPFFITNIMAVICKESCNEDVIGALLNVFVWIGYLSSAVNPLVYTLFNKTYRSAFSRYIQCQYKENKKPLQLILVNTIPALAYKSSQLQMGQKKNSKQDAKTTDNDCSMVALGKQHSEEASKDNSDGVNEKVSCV
UniProt P14416, whole entry: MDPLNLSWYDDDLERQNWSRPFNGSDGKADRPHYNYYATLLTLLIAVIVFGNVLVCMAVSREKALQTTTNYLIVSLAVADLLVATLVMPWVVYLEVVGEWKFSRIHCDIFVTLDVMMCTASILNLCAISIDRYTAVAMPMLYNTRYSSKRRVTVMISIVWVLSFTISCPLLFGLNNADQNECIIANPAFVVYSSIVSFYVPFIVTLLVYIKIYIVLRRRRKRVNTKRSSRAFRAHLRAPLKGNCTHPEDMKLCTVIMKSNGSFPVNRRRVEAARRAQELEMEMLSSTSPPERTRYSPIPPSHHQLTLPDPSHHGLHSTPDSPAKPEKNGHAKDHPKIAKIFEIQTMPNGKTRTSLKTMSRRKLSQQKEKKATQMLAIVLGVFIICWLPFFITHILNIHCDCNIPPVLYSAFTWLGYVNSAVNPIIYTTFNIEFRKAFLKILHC
UniProt P28221: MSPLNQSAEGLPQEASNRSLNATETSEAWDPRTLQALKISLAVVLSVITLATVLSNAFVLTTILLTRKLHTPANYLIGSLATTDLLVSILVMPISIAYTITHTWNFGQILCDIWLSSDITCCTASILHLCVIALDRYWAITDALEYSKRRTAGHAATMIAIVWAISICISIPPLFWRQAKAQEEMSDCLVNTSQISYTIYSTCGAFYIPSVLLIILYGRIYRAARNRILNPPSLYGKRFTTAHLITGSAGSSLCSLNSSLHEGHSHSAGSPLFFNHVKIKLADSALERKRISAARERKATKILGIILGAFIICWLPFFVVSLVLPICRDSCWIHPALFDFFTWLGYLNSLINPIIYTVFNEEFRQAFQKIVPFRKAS
UniProt P28222, whole entry: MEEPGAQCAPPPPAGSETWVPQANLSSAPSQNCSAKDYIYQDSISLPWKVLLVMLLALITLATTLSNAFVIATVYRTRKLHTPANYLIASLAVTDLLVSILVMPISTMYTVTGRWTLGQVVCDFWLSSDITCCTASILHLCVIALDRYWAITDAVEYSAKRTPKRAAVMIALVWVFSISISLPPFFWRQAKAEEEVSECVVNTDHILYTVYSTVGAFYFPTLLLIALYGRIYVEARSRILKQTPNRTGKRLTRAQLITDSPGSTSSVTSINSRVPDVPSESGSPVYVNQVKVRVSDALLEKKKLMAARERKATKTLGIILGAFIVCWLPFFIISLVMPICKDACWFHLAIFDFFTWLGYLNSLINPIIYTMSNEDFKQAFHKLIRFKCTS

What was measured:
[1] = molecular target: 5-hydroxytryptamine receptor 7 (Homo sapiens, UniProt P34969); assay: Binding affinity to human recombinant 5-HT7 receptor by radioligand displacement assay
D(3) dopamine receptor = D(3) dopamine receptor (Homo sapiens, UniProt P35462); assay: Binding affinity to human recombinant dopamine D3 receptor by radioligand displacement assay
[2] = molecular target: 5-hydroxytryptamine receptor 1A (Homo sapiens, UniProt P08908); assay: Displacement of [3H]WAY100635 from human recombinant 5-HT1A receptor expressed in CHO cells; assay type: cell-based
[3] = molecular target: Sodium-dependent serotonin transporter (Rattus norvegicus, UniProt P31652); assay: Inhibition of [3H]5-HT uptake at SERT in rat cortical synaptosomes; assay type: subcellular, Brain
[4] = molecular target: 5-hydroxytryptamine receptor 2B (Homo sapiens, UniProt P41595); assay: Binding affinity to human recombinant 5-HT2B receptor by radioligand displacement assay
[5] = molecular target: 5-hydroxytryptamine receptor 2A (Homo sapiens, UniProt P28223); assay: Binding affinity to human recombinant 5-HT2A receptor by radioligand displacement assay
D(2) dopamine receptor = D(2) dopamine receptor (Homo sapiens, UniProt P14416); assay: Binding affinity to human recombinant dopamine D2 receptor by radioligand displacement assay
[6] = molecular target: 5-hydroxytryptamine receptor 1D (Homo sapiens, UniProt P28221); assay: Displacement of [3H]5-HT from human recombinant 5-HT1D receptor expressed in CHO cells; assay type: cell-based
MDR1 (P-gp) = assay: in vitro; settings: dog, MDCK-MDR1
[7] = molecular target: 5-hydroxytryptamine receptor 1B (Homo sapiens, UniProt P28222); assay: Displacement of [3H]5-HT from human recombinant 5-HT1B receptor expressed in CHO cells; assay type: cell-based

Ki [1]: 158 nM | Ki (D(3) dopamine receptor): 200 nM | Ki [2]: 0.398 nM | Ki [3]: 794 nM | Ki [4]: 501 nM | Ki [5]: 1000 nM | Ki (D(2) dopamine receptor): 501 nM | Ki [6]: 0.2 nM | efflux ratio at 1 µM (MDR1 (P-gp)): 2.8 | Ki [7]: 3.16 nM
Structure (SMILES): Cc1ccc2c(N3CCN(CCc4cccc(N5CCNC5=O)c4)CC3)cccc2n1 [GSK163090]
